Read-outs that look alike come from different tables or passages of the source.
How the values were obtained:
MDCK cells = assay: Screening phospholipidosis assay (LipidTOX Red / NucBlue Live fluorescence ratio); conditions: LipidTOX Red to NucBlue Live fluorescence ratio, 24 h
LPLA2 = target: T1, LPLA2 (Mus musculus, UniProt Q8VEB4); assay: LPLA2 thermal stability measurement (SYPRO Orange Tm)
T1 sequence (Q8VEB4 34-412): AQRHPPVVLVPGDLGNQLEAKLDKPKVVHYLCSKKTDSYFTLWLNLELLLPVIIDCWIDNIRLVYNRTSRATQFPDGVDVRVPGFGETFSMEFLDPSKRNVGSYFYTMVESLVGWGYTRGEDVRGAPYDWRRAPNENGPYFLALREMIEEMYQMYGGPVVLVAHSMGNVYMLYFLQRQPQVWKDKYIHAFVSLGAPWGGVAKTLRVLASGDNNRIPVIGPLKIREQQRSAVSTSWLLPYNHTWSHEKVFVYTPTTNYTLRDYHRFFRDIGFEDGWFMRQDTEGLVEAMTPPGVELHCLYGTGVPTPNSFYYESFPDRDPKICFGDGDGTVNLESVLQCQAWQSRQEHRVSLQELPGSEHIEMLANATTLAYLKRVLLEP

[1] = target: T2, recombinant mouse LPLA2 (PLA2G15) (Mus musculus, UniProt Q8VEB4); assay: Transacylase activity of LPLA2 (1-O-acyl-N-acetylsphingosine synthase, cell-free liposome assay); conditions: LPLA2 IC50, 1-O-acyl N-acetylsphingosine synthase activity, pH 4.5, DOPC/sulfatide liposomes
T2 sequence (Q8VEB4 34-412): T1 sequence (Q8VEB4 34-412)

Compound | Ratio (15 μM) (MDCK cells) | (ΔTm)c-(ΔTm)d, difference in melting temperature of LPLA2 alone or in the presence of drug (LPLA2; N=3 ± SD) [°C] | other results
C[C@]12C[C@H](O)[C@H]3[C@@H](CCC4=CC(=O)CC[C@@]43C)[C@@H]1CC[C@@H]2C(=O)CO [Corticosterone, (1S,2R,10S,11S,14S,15S,17S)-17-hydroxy-14-(2-hydroxyacetyl)-2,15-dimethyltetracyclo[8.7.0.0^2,^7.0^11,^15]heptadec-6-en-5-one] | 0.28 |  | 
c1ccc2c(CC3=NCCN3)cccc2c1 [Naphazoline, 2-(naphthalen-1-ylmethyl)-4,5-dihydro-1H-imidazole] |  | 0 | IC50 [1]: 6.98 µM
CN1[C@@H]2CC[C@H]1C[C@@H](OC(c1ccccc1)c1ccccc1)C2 [Benztropine] |  | 0.30 ± 0.1 | 
CCN(CC)CCOc1ccc(C(=C(Cl)c2ccccc2)c2ccccc2)cc1 [Clomifene] | 0.38 | 1.07 ± 0.1 | 
CSC(=N)N [S-methylisothiourea] | 0.38 |  | 
C[C@]12C=CC(=O)N[C@@H]1CC[C@@H]1[C@@H]2CC[C@]2(C)[C@@H](C(=O)Nc3cc(C(F)(F)F)ccc3C(F)(F)F)CC[C@@H]12 [Dutasteride, (1S,2R,7R,10S,11S,14S,15S)-N-[2,5-bis (trifluoromethyl)phenyl]-2,15-dimethyl-5-oxo-6-azatetracyclo[8.7.0.0^2,^7.0^11,^15]heptadec-3-ene-14-carboxamide] |  |  | (ΔTm)c-(ΔTm)d, difference in melting temperature of LPLA2 alone or in the presence of drug (LPLA2): -0.45 ± 0.0 °C
CN(C)CCC=C1c2ccccc2COc2ccccc21 [Doxepin, dimethyl(3-{9-oxatricyclo[9.4.0.0ˆ[1]]pentadeca-1(15),3,5,7,11,13-hexaen-2-ylidene}propyl)amine] |  | 0.12 ± 0.5 | 

— publication PMC8243516, “Inhibition of lysosomal phospholipase A2 predicts drug-induced phospholipidosis” (Journal of Lipid Research, 2021)
